Laboratory results published in PubChem BioAssay AID1049 (The Scripps Research Institute Molecular Screening Center, 2008).
Only a part is listed here, and it is no random draw. Activity calls are given as the source filed them. No stated cut-off is given here; in the data, active means TR-FRET ratio above about 2000; inactive means the rest.

test: TR-FRET signal artefacts, primary screen, artefact control for PPARgamma SRC-2 agonist project, biochemical (AID 1049); settings: TR-FRET artefact counter-screen; at 8 µM; active compounds read high

SMILES	TR-FRET ratio
CP(=O)(Oc1ccccc1)OC(c1ccccc1)C(F)(F)F (stereo not given)	inactive: 1570
Cc1cccc(C)c1OP(C)(=O)Nc1ccc(SC(F)(F)F)cc1 (stereo not given)	inactive: 1480
Cc1cc(C)cc(OP(C)(=O)Nc2ccc(SC(F)(F)F)cc2)c1 (stereo not given)	inactive: 1470
CP(=O)(NC(=O)Nc1ccccc1)Oc1ccccc1 (stereo not given)	inactive: 1740
CCOC(=O)c1ccc(NP(C)(=O)Oc2ccc(OC)cc2)cc1 (stereo not given)	inactive: 1370
CCOP(C)(=S)SCC(=O)NC(C)C(=O)O (stereo not given)	inactive: 1600
CP(=O)(Nc1ccccn1)Oc1ccc(Cl)cc1 (stereo not given)	inactive: 1570
CP(=S)(Nn1cnnc1)Oc1ccccc1 (stereo not given)	inactive: 1300
CP(=O)(Nc1ccccc1Br)Oc1ccccc1 (stereo not given)	inactive: 1590
COc1ccccc1OP(C)(=O)Nc1ccccc1 (stereo not given)	inactive: 1630
O=[N+]([O-])c1ccc2c(c1)C=Nc1ccccc1O2	inactive: 1640
Cc1cccc(C)c1OP(C)(N)=O (stereo not given)	inactive: 1730
CC(C)(C)c1ccc(OP(C)(=O)Nc2ccc(SC(F)(F)F)cc2)cc1 (stereo not given)	inactive: 1350
Cc1ccc(NP(C)(=O)Oc2ccccc2)c(C)c1 (stereo not given)	inactive: 1380
COc1ccccc1OP(C)(=O)Nc1ccc(C)cc1 (stereo not given)	inactive: 1670
CCOC(=O)c1ccc(NP(C)(=O)Oc2ccccc2)cc1 (stereo not given)	inactive: 1680
Cc1cc(C)cc(OP(C)(N)=O)c1 (stereo not given)	inactive: 1620
COc1ccc(OP(C)(=O)Nc2cccc(F)c2)cc1 (stereo not given)	inactive: 1530
COc1ccccc1OP(C)(=O)Nc1cc(Cl)ccc1C (stereo not given)	inactive: 1620
CCN(CC)CCCOC(=O)C(O)(c1ccccc1)c1ccccc1	inactive: 1400
CCOC(=O)c1ccc(NP(C)(=O)Oc2cc(C)cc(C)c2)cc1 (stereo not given)	inactive: 1440
Cc1cc(C)cc(OP(C)(=O)Nc2ccc(C)cc2C)c1 (stereo not given)	inactive: 1660
Cc1ccc(C)c(NP(C)(=O)Oc2ccccc2)c1 (stereo not given)	inactive: 1680
Cc1cc(C)cc(OP(C)(=O)Nc2ccccn2)c1 (stereo not given)	inactive: 1550

SMILES	TR-FRET ratio
CP(=O)(Nc1cccc(Br)c1)Oc1ccccc1 (stereo not given)	inactive: 1730
CC1=NCCc2c1[nH]c1ccccc21.O=[N+]([O-])c1cc([N+](=O)[O-])c(O)c([N+](=O)[O-])c1	inactive: 1740
CN1CCCCC1COC(=O)C1(O)c2ccccc2CCc2ccccc21 (stereo not given)	inactive: 1530
COc1ccccc1OP(C)(=O)Nc1c(C)cccc1C (stereo not given)	inactive: 1450
CCCOc1ccc(NP(C)(=O)Oc2ccc(Cl)cc2)cc1 (stereo not given)	inactive: 1410
CP(=O)(Nc1ccc(SC(F)(F)F)cc1)Oc1ccccc1 (stereo not given)	inactive: 1560
O=[N+]([O-])c1cc([N+](=O)[O-])c(-n2nnc3ccccc32)c([N+](=O)[O-])c1	inactive: 1600
Cc1nc2ccc3ccccc3c2s1.O=[N+]([O-])c1cc([N+](=O)[O-])c(O)c([N+](=O)[O-])c1	inactive: 1280
CCOP(C)(=S)SCC(=O)NC(C)(CC)C(=O)O (stereo not given)	inactive: 1620
CP(=O)(Nc1ccc2c(c1)OCCO2)Oc1ccccc1 (stereo not given)	inactive: 1720
Cc1ccccc1NP(C)(=O)Nc1ccccc1C	inactive: 1460
COc1ccc(OP(C)(=O)Nc2cccc(Br)c2)cc1 (stereo not given)	inactive: 1430
CN(C)CCOC(=O)C(O)(c1ccccc1)C1CCCCC1 (stereo not given)	inactive: 1530
COc1ccc(NP(C)(=O)Oc2ccccc2OC)cc1 (stereo not given)	inactive: 1810
O=[N+]([O-])c1cc([N+](=O)[O-])c(NCC2CCS(=O)(=O)C2)c([N+](=O)[O-])c1 (stereo not given)	inactive: 1500
CCOC(=O)c1ccc(NP(C)(=O)Oc2ccc(F)cc2)cc1 (stereo not given)	inactive: 1620
COc1ccc(OP(C)(=O)Nc2ccc(SC(F)(F)F)cc2)cc1 (stereo not given)	inactive: 1580
CCN(CC)CCCOC(=O)C(O)(c1ccccc1)C1CCCCC1 (stereo not given)	inactive: 1580
CP(=O)(Nc1ccccc1)Oc1ccc(F)cc1 (stereo not given)	inactive: 1580
CP(=O)(Nc1ccccc1F)Oc1ccccc1 (stereo not given)	inactive: 1470
CC(C)c1ccc(OP(C)(=O)Nc2ccc(SC(F)(F)F)cc2)cc1 (stereo not given)	inactive: 1780
O=C(OCCN1CCN(CCOCc2ccccc2)CC1)C(O)(c1ccccc1)c1ccccc1	inactive: 1340
COc1ccc(OP(C)(=O)Nc2ccccn2)cc1 (stereo not given)	inactive: 1640
CN(C)CCOC(=O)C(O)(c1ccccc1)C1CCCC1 (stereo not given)	inactive: 1600

SMILES	TR-FRET ratio
Cc1c(NP(C)(=O)Oc2ccc(C(C)C)cc2)c(=O)n(-c2ccccc2)n1C (stereo not given)	inactive: 1570
O=[N+]([O-])c1cc([N+](=O)[O-])c(Nc2ccccn2)c([N+](=O)[O-])c1	inactive: 1610
COc1ccccc1OP(C)(=O)Nc1ccc(C)cc1C (stereo not given)	inactive: 1540
CP(=O)(Nc1ccccn1)Oc1ccccc1 (stereo not given)	inactive: 1480
CCc1ccc(OP(C)(=O)O)cc1	inactive: 1630
Cc1cc(C)cc(OP(C)(=O)Nc2cccc(C(F)(F)F)c2)c1 (stereo not given)	inactive: 1640
COc1ccccc1OP(C)(=O)Nc1ccc(C)c(C)c1 (stereo not given)	inactive: 1480
COc1ccc(OP(C)(=O)Nc2ccccc2Br)cc1 (stereo not given)	inactive: 1690
Cc1nc2ccc3ccccc3c2o1.O=[N+]([O-])c1cc([N+](=O)[O-])c(O)c([N+](=O)[O-])c1	inactive: 1440
CP(=O)(Nc1ccc(Cl)cc1Cl)Oc1ccccc1 (stereo not given)	inactive: 1680
CP(=O)(OCCOc1ccccc1)OCCOc1ccccc1	inactive: 1760
CCOC(=O)c1ccc(NP(C)(=O)Oc2ccc(Cl)cc2)cc1 (stereo not given)	inactive: 1390
CP(=O)(OC12CC3CC(CC(C3)C1)C2)OC12CC3CC(CC(C3)C1)C2	inactive: 1550
COc1ccc(OP(C)(=O)Nc2ccc(Br)cc2)cc1 (stereo not given)	inactive: 1590
CCN(CC)CC(O)COC(=O)C(O)(c1ccccc1)C1CCCCC1 (stereo not given)	inactive: 1410
COc1ccccc1OP(C)(=O)Nc1c(C)n(C)n(-c2ccccc2)c1=O (stereo not given)	inactive: 1720
CCc1ccc(OP(C)(=O)Nc2cccnc2)cc1 (stereo not given)	inactive: 1400
CP(=O)(Oc1ccccc1)N1CCOC1=O (stereo not given)	inactive: 1550
COc1ccccc1OP(C)(=O)Nc1ccccc1Br (stereo not given)	inactive: 1560
CC(C)(C)c1ccc(OP(C)(=O)O)cc1	inactive: 1500
CP(=O)(Nc1ccc(Cl)cc1)Oc1ccc(F)cc1 (stereo not given)	inactive: 1580
CN(C)C(=O)c1c([N+](=O)[O-])cc([N+](=O)[O-])cc1[N+](=O)[O-]	inactive: 1660
